Among the data in BindingDB's records for 28789912 (Punjabi University, 2017) are IC50 values, retold here.

Protein sequences, listed by entry. Tags and fused reporters are not part of them. Lines headed by an entry give the natural chain unless they say otherwise; changes in a name come on top.
UniProt Q9H244: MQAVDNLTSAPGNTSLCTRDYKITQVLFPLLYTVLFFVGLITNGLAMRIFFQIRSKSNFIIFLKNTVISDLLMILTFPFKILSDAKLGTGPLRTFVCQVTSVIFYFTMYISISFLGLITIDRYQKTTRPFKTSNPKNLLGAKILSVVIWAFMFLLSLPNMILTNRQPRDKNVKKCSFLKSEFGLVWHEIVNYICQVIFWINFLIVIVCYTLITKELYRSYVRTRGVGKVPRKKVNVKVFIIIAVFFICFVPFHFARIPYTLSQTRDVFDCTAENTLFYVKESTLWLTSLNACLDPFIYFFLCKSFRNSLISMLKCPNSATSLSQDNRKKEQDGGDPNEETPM

The target in the assay is P2Y purinoceptor 12 (Homo sapiens, UniProt Q9H244). As to the kind of experiment: ChEBML_1694650.

As usually defined, the IC50 is the concentration needed to halve the response being measured. A high value points to weaker potency. `O=[N+]([O-])c1cccc2[nH]nnc12` showed an IC50 of 2.06 mM.
